The assay concerns the target E3 ubiquitin-protein ligase Mdm2 [1-188] (Homo sapiens, UniProt Q00987).

Amino acid sequences for entries named in this document (tags omitted). Residues count along the entry.
UniProt Q00987, 1-188: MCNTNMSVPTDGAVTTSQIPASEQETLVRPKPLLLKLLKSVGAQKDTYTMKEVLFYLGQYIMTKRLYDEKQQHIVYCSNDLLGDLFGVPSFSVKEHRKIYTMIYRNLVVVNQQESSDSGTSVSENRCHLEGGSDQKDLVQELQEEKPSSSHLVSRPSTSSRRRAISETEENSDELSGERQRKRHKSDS

The term IC50 denotes the midpoint of a concentration-inhibition curve. Compound `CN1C(=O)[C@@H](CCN2CCOCC2)O[C@H](c2ccc(Cl)cc2)[C@@H]1c1ccc(Cl)cc1` [US11407721, Example 40] had a 50% inhibitory concentration (IC50) of 19.1 µM.

These data come from BindingDB's records for patent US11407721 (Amgen, 2022).
